pIC50: −log10 of the molar value. In brackets after ≈: the same amount, converted by molar mass. Several values for one entry are separate records, joined by “and”; a condition that tells them apart may be missing. Equal values may be shown once. Read-outs that look alike come from different tables or passages of the source.
Assays:
[1] = system: Saccharomyces cerevisiae (W303); experiment: Yeast growth inhibition assay; format: cell-based; conditions: wild-type W303
[2] = biological target: T1, β′–σ^70 PPI (GST-β′ aa 1–334 / His-tagged σ^70) (Escherichia coli, UniProt P0A8T7); experiment: Competitive ELISA of β′–σ^70 interaction; format: binding, E. coli; conditions: for β′–σ70 binding inhibition, ELISA 100 μM (percentage inhibition ± SD): fixed concentration of 100 μM; for pIC50: read-out: Binding Inhibition IC50 ± SD
[3] = system: E. coli DH10T1R; experiment: MIC assay, E. coli; format: cell-based, Escherichia coli; conditions: in the presence of PMBN (2 μg/mL)
[4] = system: B. subtilis WB800N; experiment: MIC assay, B. subtilis; format: cell-based, Bacillus subtilis
[5] = system: E. coli (DH10T1R strain); experiment: Bacterial growth inhibition assay, E. coli; format: cell-based, Escherichia coli; conditions: for Growth Inhibition at 100 μM (8 h) E. coli: in the presence of PMBN (2 μg/mL)
[6] = system: B. subtilis (WB800N strain); experiment: Bacterial growth inhibition assay, B. subtilis; format: cell-based, Bacillus subtilis
[7] = biological target: E. coli RNAPc with recombinant σ^70 (holoenzyme) (Escherichia coli, UniProt P0A8T7); experiment: Fluorescence-detected single-round in vitro transcription assay; format: biochemical; conditions: read-out: In vitro transcription IC50, fluorescence-based assay
[8] = system: RNAP; conditions: cited from earlier work
[9] = biological target: T1, β′–σ^70 PPI (GST-β′ aa 1–334 / His-tagged σ^70); conditions: cited from earlier work

The chains behind the UniProt entries cited, without tags or fusion partners. Residues count along the entry.
UniProt P0A8T7, 1-334 limits assumed: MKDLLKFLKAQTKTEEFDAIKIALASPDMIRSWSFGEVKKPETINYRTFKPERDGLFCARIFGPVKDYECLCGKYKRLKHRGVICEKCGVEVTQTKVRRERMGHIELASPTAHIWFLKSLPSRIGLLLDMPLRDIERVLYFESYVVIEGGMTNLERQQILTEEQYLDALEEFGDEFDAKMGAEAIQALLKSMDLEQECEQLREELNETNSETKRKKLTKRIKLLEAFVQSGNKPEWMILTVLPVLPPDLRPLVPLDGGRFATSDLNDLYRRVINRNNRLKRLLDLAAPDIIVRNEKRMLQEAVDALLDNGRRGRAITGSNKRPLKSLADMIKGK
UniProt P0A8T7, whole entry: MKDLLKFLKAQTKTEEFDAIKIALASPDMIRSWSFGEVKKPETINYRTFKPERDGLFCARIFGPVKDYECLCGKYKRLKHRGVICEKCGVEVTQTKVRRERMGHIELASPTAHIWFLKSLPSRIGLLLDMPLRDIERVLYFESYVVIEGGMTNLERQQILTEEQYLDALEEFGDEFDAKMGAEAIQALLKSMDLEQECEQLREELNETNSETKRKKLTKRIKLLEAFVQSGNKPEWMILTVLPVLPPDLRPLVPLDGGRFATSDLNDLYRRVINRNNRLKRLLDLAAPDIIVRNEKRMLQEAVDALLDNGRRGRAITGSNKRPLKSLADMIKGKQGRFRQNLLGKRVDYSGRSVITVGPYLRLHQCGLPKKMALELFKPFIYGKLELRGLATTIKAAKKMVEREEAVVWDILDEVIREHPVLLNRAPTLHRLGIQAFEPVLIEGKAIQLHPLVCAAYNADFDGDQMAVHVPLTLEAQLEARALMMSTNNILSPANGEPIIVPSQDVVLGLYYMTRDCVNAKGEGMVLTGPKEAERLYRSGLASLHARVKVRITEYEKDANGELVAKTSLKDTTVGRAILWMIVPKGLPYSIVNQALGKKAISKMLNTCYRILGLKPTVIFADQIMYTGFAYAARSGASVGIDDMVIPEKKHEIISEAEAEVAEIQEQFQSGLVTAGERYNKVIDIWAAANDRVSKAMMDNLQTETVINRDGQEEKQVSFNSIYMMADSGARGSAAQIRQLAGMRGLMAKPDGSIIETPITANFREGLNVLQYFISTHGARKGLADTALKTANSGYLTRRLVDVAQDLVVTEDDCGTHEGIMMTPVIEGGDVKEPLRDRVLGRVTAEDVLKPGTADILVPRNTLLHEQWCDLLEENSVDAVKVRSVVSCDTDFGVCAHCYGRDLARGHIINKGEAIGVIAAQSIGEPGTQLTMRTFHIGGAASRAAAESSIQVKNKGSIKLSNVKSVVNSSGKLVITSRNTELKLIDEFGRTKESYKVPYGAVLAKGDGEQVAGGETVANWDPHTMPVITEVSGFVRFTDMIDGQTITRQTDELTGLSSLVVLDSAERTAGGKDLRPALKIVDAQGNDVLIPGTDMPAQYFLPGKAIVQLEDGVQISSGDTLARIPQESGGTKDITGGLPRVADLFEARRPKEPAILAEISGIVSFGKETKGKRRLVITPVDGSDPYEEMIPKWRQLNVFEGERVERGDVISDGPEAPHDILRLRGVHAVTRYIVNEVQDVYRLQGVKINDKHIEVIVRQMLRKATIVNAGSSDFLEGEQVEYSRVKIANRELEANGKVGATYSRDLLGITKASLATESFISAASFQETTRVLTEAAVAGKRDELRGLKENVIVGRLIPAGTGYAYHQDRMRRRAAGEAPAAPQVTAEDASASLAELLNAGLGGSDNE
UniProt P0A7Z4, whole entry partner: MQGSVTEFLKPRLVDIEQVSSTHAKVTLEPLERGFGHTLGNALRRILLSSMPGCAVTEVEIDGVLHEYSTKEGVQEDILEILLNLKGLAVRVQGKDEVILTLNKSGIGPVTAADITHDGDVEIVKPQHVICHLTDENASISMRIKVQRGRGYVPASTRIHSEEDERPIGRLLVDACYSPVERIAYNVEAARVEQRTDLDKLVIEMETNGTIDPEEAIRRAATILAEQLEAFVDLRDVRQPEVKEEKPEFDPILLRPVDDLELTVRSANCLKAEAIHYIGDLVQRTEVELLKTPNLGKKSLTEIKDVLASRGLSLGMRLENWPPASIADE
UniProt P0A8V2, whole entry partner: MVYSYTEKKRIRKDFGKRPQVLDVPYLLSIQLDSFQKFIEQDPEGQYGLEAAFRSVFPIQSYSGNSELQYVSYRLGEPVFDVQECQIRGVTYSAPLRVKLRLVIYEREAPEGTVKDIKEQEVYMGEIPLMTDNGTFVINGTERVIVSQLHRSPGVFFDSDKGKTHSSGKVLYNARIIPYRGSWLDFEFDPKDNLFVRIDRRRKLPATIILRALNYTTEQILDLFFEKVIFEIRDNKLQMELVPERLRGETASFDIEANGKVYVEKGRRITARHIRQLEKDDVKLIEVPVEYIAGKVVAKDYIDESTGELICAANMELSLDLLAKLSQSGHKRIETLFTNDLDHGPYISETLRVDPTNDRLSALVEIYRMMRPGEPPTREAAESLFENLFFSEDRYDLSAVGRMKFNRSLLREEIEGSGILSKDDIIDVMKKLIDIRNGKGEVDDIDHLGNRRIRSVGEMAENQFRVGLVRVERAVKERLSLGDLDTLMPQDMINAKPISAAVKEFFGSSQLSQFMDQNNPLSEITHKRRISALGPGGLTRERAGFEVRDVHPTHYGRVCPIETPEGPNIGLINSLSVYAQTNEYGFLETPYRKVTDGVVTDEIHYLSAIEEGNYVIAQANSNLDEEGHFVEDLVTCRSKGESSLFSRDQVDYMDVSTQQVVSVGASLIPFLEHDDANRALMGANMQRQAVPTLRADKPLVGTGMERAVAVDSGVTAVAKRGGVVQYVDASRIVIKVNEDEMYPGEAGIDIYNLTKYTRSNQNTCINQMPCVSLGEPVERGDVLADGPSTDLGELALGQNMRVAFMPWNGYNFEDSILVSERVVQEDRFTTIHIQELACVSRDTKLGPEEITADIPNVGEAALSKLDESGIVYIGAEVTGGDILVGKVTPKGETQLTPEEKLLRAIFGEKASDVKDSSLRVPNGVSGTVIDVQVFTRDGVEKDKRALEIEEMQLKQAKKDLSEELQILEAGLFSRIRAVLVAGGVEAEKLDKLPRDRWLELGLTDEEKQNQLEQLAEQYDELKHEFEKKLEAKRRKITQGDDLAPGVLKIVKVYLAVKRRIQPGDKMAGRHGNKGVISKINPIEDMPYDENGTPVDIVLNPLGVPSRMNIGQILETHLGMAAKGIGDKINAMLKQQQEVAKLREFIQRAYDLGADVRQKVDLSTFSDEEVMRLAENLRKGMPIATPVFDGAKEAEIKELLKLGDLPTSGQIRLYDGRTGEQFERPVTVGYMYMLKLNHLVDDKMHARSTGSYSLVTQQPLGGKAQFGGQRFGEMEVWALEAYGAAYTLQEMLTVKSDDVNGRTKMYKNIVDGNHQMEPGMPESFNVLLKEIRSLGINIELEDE
UniProt P0A800, whole entry partner: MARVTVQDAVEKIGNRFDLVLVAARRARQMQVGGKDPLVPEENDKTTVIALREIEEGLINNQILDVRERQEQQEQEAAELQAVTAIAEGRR

SMILES	Growth Inhibition at 100 μM (8 h) S. cerevisiae [1] [%]	β′–σ70 binding inhibition, ELISA 100 μM (percentage inhibition ± SD) [2] [%]	pIC50 ([2]; dose–response ELISA)	MIC E. coli [3] [µM]	MIC B. subtilis [4] [µM]	Growth Inhibition at 100 μM (8 h) E. coli [5] [%]	Growth Inhibition at 100 μM (8 h) B. subtilis [6] [%]	B. subtilis growth inhibition over time ([6]; only at 100 µM)	pIC50 [7]	pIC50 [8]	pIC50 [9]	E. coli growth inhibition at lowest concentration ([5]; 10 µM, 8 h observation, with PMBN)	Fold less potent than reference compound 4 (binding inhibition IC50) ([2]; dose–response ELISA) [fold]	E. coli growth inhibition over time ([5]; 100 µM)
CC(=O)Oc1ccc2c(OC(C)=O)c(-c3ccc(F)cc3)oc2c1	0	100	4.79	50	50 (≈ 16.4 µg/mL)	29	40	significantly inhibited						
O=C(Nc1ccc(Cl)cc1)Nc1c(-c2cccnc2)[nH]c2ccc(F)cc12	0			25	50 (≈ 19 µg/mL)	91	73		4.57	4.54 and 4.55	5.09			
N#Cc1cc2cnccc2c2[nH]c3ncccc3c12	1			1.56		92	19					completely inhibited		
CCN(CC)CCSCC(=O)c1ccc2[nH]c3ncc(Cl)cc3c2c1	0	55±1	4.10	12.5	100 (≈ 37.6 µg/mL)	30	15						10	only partially effective
